Earlier results in patent US20050245504A1, “Treatment of diseases with combinations of alpha 7 Nicotinic Acetylcholine Receptor agonists and other compounds” (priority 2002, published 2005).

Conditions: amyotrophic lateral sclerosis

For Nc1nc2ccc(OC(F)(F)F)cc2s1 [Riluzole], the survival of patients is listed as “prolong the survival”.
